# scFv variants of Ab-14 (heavy chain) against a SARS-CoV-2 spike peptide

Binding partner: SARS-CoV-2 spike HR2 peptide, sequence PDVDLGDISGINAS.

Each scFv is VH, a (GGGGS)3 linker, VL, as in the parent Ab-14, and differs from it in the CDRs of the heavy chain only.
VH: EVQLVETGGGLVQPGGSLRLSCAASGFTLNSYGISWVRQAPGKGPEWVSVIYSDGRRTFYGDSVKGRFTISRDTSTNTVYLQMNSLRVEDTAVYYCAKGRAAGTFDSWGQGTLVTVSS
VL: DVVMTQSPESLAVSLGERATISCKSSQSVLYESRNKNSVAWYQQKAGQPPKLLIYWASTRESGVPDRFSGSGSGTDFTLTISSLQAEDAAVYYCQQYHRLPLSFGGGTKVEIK

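Phage display of a naive human antibody library on the peptide gave the parent. The variants were designed computationally from a first round of random CDR variants and then made and measured. Group labels follow the data file (Ctrl: baseline library sampled from a position-specific scoring matrix, with some repeated check sequences; Rand: our label for a block that the file lists under HC and that is probably the random mutants of the ten best first-round binders; GP: Gaussian process model; GPLM: also part of the Gaussian process libraries; HC: hill climbing; Gen: genetic algorithm; Gibbs: Gibbs sampling; a sequence that several methods proposed may carry one label only). The scFvs were displayed on barcoded MATa yeast, the peptide on MATalpha yeast. The frequency of each diploid, read from paired DNA barcodes, reflects how well the two displayed proteins bind. Scores were corrected for input abundance and mapped to Kd with protein pairs of known affinity run in the same pool. There are six technical replicates.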

Positions count from residue 1 of the parent VH; S53A puts A in place of S.
Variants here have at most six changes.
Kd is apparent (estimated from mating counts) and averaged on the log scale over replicates with a signal. Smaller is tighter.
A pair that was not seen in any replicate is written "no signal"; this usually means weak binding, but a binder can also be missed.
Empty control strains, which show no peptide, gave a signal in 1% of pairings with all heavy chain designs; the median was 120 nM and 95% of these signals were weaker than 7.0 nM. No background was subtracted. Also given: how often the same scFv was detected with the empty control strains.
Values of this round are not directly comparable with the first-round values of the same sequences.
The authors' rule: three or more of the six replicates give a measured affinity, fewer mean a poor binder.
Of ten entries with the parent sequence, four were seen in most replicates (averages 2.2 nM to 240 nM), three in one and three in none, so single entries are noisy.

With S53A+D106W+S107L [GPLM_HC] the result was 140 nM (3 of 6 replicates; controls 0 of 18).
With R56F+S63D+R100K [Ctrl] the result was 110 nM (1 of 6 replicates; controls 1 of 18).
With G26S+T28S+R100Q+S107K [GP_Gibbs] the result was no signal (0 of 6 replicates; controls 0 of 18).
With G61H+R100K+A101V [GPLM_Gibbs] the result was 3.7 nM (6 of 6 replicates; controls 0 of 18).
With T28D+S53A+G61S+G103F [Ctrl] the result was 2.3 nM (6 of 6 replicates; controls 1 of 18).
With T28N+S63D+G103L [Ctrl] the result was no signal (0 of 6 replicates; controls 0 of 18).
With S63K+R100A+A101L+A102K [Ctrl] the result was no signal (0 of 6 replicates; controls 0 of 18).
With R56M+G61T+K65A+A101N [Ctrl] the result was 6.1 nM (4 of 6 replicates; controls 0 of 18).
With T28Q+A101S [GP_HC] the result was no signal (0 of 6 replicates; controls 0 of 18).
With T28A+S31M [Ctrl] the result was 62 nM (4 of 6 replicates; controls 1 of 18).
With T28W+S31E+A101T+S107G [GPLM_Gen] the result was 440 nM (2 of 6 replicates; controls 2 of 18).
With F59A+G61D+K65R [Ctrl] the result was 6.2 nM (6 of 6 replicates; controls 1 of 18).
With G26W+T28S+S31E+A101T [GP_Gen] the result was 20 nM (1 of 6 replicates; controls 0 of 18).
With T28D+G61V+R100K+S107V [GP_Gen] the result was 4.4 nM (6 of 6 replicates; controls 0 of 18).
With T28S+S31M+G61I [GP_HC] the result was 72 nM (3 of 6 replicates; controls 0 of 18).
With S63D+A101E+S107T [GPLM_Gen] the result was 3.2 nM (1 of 6 replicates; controls 0 of 18).
With T28S+F59W+R100Q [GPLM_Gen] the result was 7.1 nM (6 of 6 replicates; controls 0 of 18).
With G26H+T28D+R100K+S107V [GP_Gibbs] the result was 17 nM (4 of 6 replicates; controls 0 of 18).
With G61C+R100Q+A101L [GP_HC] the result was 230 nM (2 of 6 replicates; controls 0 of 18).
With R100E+T104A [Ctrl] the result was no signal (0 of 6 replicates; controls 0 of 18).
With S31E+A101W+S107T [GPLM_HC] the result was 12 nM (6 of 6 replicates; controls 0 of 18).
With S53A+G99Y+R100Q+F105N+D106K [Rand] the result was no signal (0 of 6 replicates; controls 0 of 18).
With T28S+G61A+R100K+A101N+S107T [GP_Gibbs] the result was 1.2 nM (6 of 6 replicates; controls 0 of 18).
With R56M+A101E+S107T [GPLM_Gen] the result was 8.1 nM (6 of 6 replicates; controls 0 of 18).
With T28S+S31E+R100N+A101T [GPLM_Gen] the result was 1.9 nM (6 of 6 replicates; controls 0 of 18).
With T28E+G61D+A101T [GPLM_Gibbs] the result was 1.3 nM (5 of 6 replicates; controls 0 of 18).
With T28D+S63A+R100K+S107Q [GP_Gibbs] the result was 3.9 nM (6 of 6 replicates; controls 0 of 18).
With T28S+S31E+R100I+A101T [GPLM_Gibbs] the result was 940 pM (6 of 6 replicates; controls 0 of 18).
With S53A+A101V+D106K [GPLM_HC] the result was 4.8 nM (3 of 6 replicates; controls 0 of 18).
With T28P+R100W [Ctrl] the result was 140 nM (1 of 6 replicates; controls 0 of 18).
With S31D+F59W+G61H [GPLM_HC] the result was 16 nM (6 of 6 replicates; controls 0 of 18).
With T28D+G61H+A101I [GP_Gen] the result was 1.2 nM (6 of 6 replicates; controls 1 of 18).
With S31D+G61I+T104S [GPLM_HC] the result was 34 nM (6 of 6 replicates; controls 2 of 18).
With T28E+R100K+A101E+S107N [GP_Gibbs] the result was 2.4 nM (6 of 6 replicates; controls 0 of 18).
With S31D+T58S+F59Q+G61I [GPLM_HC] the result was 16 nM (3 of 6 replicates; controls 0 of 18).
With S31D+F59Q+G61S+A101C [GPLM_HC] the result was 110 nM (2 of 6 replicates; controls 0 of 18).
With T28D+F59G [Ctrl] the result was 2.6 nM (6 of 6 replicates; controls 0 of 18).
With T28E+S31E+G61A [GPLM_Gen] the result was 2.0 nM (6 of 6 replicates; controls 1 of 18).
With F27I+I34Y+A102Q+F105Q+D106L [Ctrl] the result was 1.0 µM (1 of 6 replicates; controls 1 of 18).
With S35Q+R56Y+G61A+R100A+G103D+S107L [Ctrl] the result was 91 nM (1 of 6 replicates; controls 0 of 18).
With G61A+A101E+S107K [GPLM_Gibbs] the result was 5.9 nM (6 of 6 replicates; controls 1 of 18).
With N30K+G61S+R100K+A101L [GP_HC] the result was 110 nM (3 of 6 replicates; controls 0 of 18).
With F27R+G61T+F105V [Ctrl] the result was no signal (0 of 6 replicates; controls 0 of 18).
With T28Y+S31D+F59Y [GP_HC] the result was 1.4 nM (2 of 6 replicates; controls 0 of 18).
With N30D+S31D+R56I+R100E [Ctrl] the result was 16 nM (6 of 6 replicates; controls 0 of 18).
With T28N+G61A+S63K+A101Q [GP_Gen] the result was no signal (0 of 6 replicates; controls 0 of 18).
With F27D+F59A [Ctrl] the result was 6.9 nM (6 of 6 replicates; controls 0 of 18).
With T28D+R100T [GPLM_Gen] the result was 3.0 nM (6 of 6 replicates; controls 0 of 18).
With T28D+A101T [GPLM_Gen] the result was 7.9 nM (6 of 6 replicates; controls 0 of 18).

6 of these entries, quoted again:

| changes | group | apparent Kd | replicates with signal | signal with controls |
|---|---|---|---|---|
| T28D+A101T | GPLM_Gen | 7.9 nM | 6 of 6 | 0 of 18 |
| S31D+G61I+T104S | GPLM_HC | 34 nM | 6 of 6 | 2 of 18 |
| R56F+S63D+R100K | Ctrl | 110 nM | 1 of 6 | 1 of 18 |
| G26H+T28D+R100K+S107V | GP_Gibbs | 17 nM | 4 of 6 | 0 of 18 |
| T28W+S31E+A101T+S107G | GPLM_Gen | 440 nM | 2 of 6 | 2 of 18 |
| T28Q+A101S | GP_HC | no signal | 0 of 6 | 0 of 18 |

Values reported by Li et al. 2023, doi:10.1038/s41467-023-39022-2 (FLAb copy).